Data reported in PubChem BioAssay AID1117337 (Cheminformatics & Chemogenomics Research Group (CCRG), …, 2015).
Activity calls are given as the source filed them. The rule behind the calls is not given here.

Tested on: ADSC/ECFC co-culture, VEGF-stimulated, CD31 tube area
Assay: ADSC/ECFC co-culture angiogenesis inhibition – imaging, VEGF stimulation, CD31 staining, tube area, IC50, dose response (AID 1117337)

## C/C1=C2N=C(/C=C3N=C(/C(C)=C4\[N-][C@@](C)([C@@H]5N=C1[C@](C)(CCC(=O)NC[C@@H](C)OP(=O)([O-])O[C@H]1[C@@H](O)[C@@H](n6cnc7cc(C)c(C)cc76)O[C@@H]1CO)[C@H]5CC(N)=O)[C@@](C)(CC(N)=O)[C@@H]4CCC(N)=O)[C@@](C)(CC(N)=O)[C@@H]\3CCC(N)=O)C(C)(C)[C@@H]/2CCC(N)=O.[C-]#N.[Co+3]
  IC50: inactive: > 10 µM
